Laboratory results reported in patent publication US6569353B1, “Reactive decontamination formulation” (dated 2003).

Tested on: Bacillus subtilus globigii spores
Assay: Spore destruction by oxidant solutions (Example 11)
Conditions: 1.3×10^8 spores on glass slide in 8 mL; 0.13 M hypochlorite or 1.3 M activated peroxide + 0.13 M OXONE; detection limit 99.99998% (6.6 log) reduction

Sodium Hypochlorite
time to eliminate all detectable spores: ≤ 5 min
